Binding of CDR-mutated scFvs to a peptide of the spike HR2 region

Data: MIT Lincoln Laboratory AlphaSeq set, Engelhart et al. 2022, doi:10.1038/s41597-022-01779-4, as distributed in FLAb.

Antigen: PDVDLGDISGINAS, a 14-residue peptide of the SARS-CoV-2 spike HR2 region.

Ab-14 is the parent antibody, in scFv form: VH, then the linker GGGGSGGGGSGGGGS, then VL. The heavy chain is unchanged in all variants.
VH: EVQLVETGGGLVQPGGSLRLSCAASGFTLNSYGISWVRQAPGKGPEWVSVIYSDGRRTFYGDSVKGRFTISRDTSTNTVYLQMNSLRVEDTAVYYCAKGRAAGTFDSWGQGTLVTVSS
VL: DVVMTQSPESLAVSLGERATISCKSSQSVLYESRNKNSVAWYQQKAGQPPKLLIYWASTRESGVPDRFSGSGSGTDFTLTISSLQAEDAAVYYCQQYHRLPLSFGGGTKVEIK

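In library AAYL50, one, two or three CDR residues were substituted; doubles and triples were drawn at random. The assay is AlphaSeq: two haploid yeast populations carry antibody and antigen on their surface. Binding brings cells together so that they mate, and sequencing counts the barcode pairs among the diploids. The ratio of observed to expected reads was calibrated, replicate by replicate, on BCL2-family standards whose Kd was known from biolayer interferometry. There are three technical replicates.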

Each variant is given by its three light chain CDRs, as the data file delimits them; those of the parent are KSSQSVLYESRNKNSVA, WASTRES, QQYHRLPLS. All variants listed here change Q95 of the VL, counted from its first residue. Each Kd is an estimate from the mating assay, the geometric mean of the replicates in which the pair was seen; lower is stronger. Where no diploid with the target was found in any replicate, the entry reads "not detected": below detection, most likely a poor binder, though not proof of it. Background: pairings of library AAYL50 with three empty control strains gave a value in 18% of cases (median 15 µM, 5th percentile 970 nM). Values in that range, when seen in few replicates, are hard to tell from nonspecific mating.

CDR-L1,CDR-L2,CDR-L3,Kd (apparent),detected
KSSQSVLYISRNKNSVA,WASTRES,AQYHRLPLS,23 µM,1 of 3
KSSQSVLYISRNLNSVA,WASTRES,CQYHRLPLS,not detected,0 of 3
KLSQSVPYESRNKNSVA,WASTRES,FQYHRLPLS,28 nM,3 of 3
KSSWSVLYESRNKNSVA,WASTYES,WQYHRLPLS,not detected,0 of 3
KSSQSVHYESRNKSSVA,WASTRES,EQYHRLPLS,890 nM,3 of 3
KSSNSVLYESRNKNSVA,WASTRES,VQYHRLPPS,30 µM,1 of 3
KSSQSVLYESRNKNSVA,WASTREV,HQYHRLPLN,140 µM,1 of 3
KSSQSVLYESRNKPSVA,WASTRES,PQYHRLVLS,not detected,0 of 3
KSSQSVLYESRNVNSVA,WASTRES,WQYHRLPLS,not detected,0 of 3
KSSQSMLYESRNKNSVA,WASTRNS,WQYHRLPLS,not detected,0 of 3
KSSQSVLYESRNKNSVA,WASTREN,SQYHRLCLS,1.4 µM,3 of 3
KSSQSVLYESRLKNSVA,WASTRES,NQYHRLPPS,50 µM,1 of 3
KSSQDVLYESRNKNSVA,WASTRES,GQYMRLPLS,97 nM,3 of 3
KSNQSVLYESRNKNSVA,WASTRES,TQYHRVPLS,120 nM,3 of 3
KSSQSVLYESRNKNSVA,WASTRES,RRYHRLPLS,49 nM,3 of 3
KSSQSVLYESRNKNSVA,WASRRES,VHYHRLPLS,61 nM,3 of 3
KSSQSVLAESRNKNSVA,WASTRES,PQKHRLPLS,13 µM,1 of 3
KSSQSVLYESRNKNSVA,WASTRER,SQYHRLPLP,not detected,0 of 3
KSSQSVLYESRNKNSVA,WASTRES,EQYHRPPLS,190 nM,3 of 3
KSSQSVNYESRNKNSVA,WASTRET,RQYHRLPLS,not detected,0 of 3
KSSQSVLYESRNKASVA,WASTRES,MQYLRLPLS,39 µM,1 of 3
KMSQSVLFESRNKNSVA,WASTRES,IQYHRLPLS,7.6 nM,3 of 3
KSSQDVLYESRNKNSVA,WASTRES,NQYHNLPLS,not detected,0 of 3
KSSQSVLYESRNKNWVA,WASTMES,DQYHRLPLS,not detected,0 of 3
KSSQEVLYESREKNSVA,WASTRES,LQYHRLPLS,69 nM,3 of 3
KSSYSVLYESQNKNSVA,WASTRES,DQYHRLPLS,not detected,0 of 3
KSSQQVLYESRNKNSVA,WASTRES,HQYPRLPLS,360 nM,1 of 3
KYSQCVLYESRNKNSVA,WASTRES,DQYHRLPLS,790 nM,2 of 3
KSSQSVLYESRNKNSVA,WARTRES,SKYHRLPLS,370 nM,3 of 3
KSSQSVLYESRNKNSVA,WASGRES,CQYGRLPLS,not detected,0 of 3
KSSQSVLYESRNNNSVA,WASTRES,VQYHRLSLS,not detected,0 of 3
KSSQSVLYESRNKNSVA,WASTRES,IQYHRRSLS,850 µM,1 of 3
KSSQSVLYESRNKNSVA,WASTRES,HQYFRLPWS,not detected,0 of 3
KSSQSVMYESRNKNSVA,WASTRES,EQYHRLPAS,5.7 nM,3 of 3
SSSQSVLYESRNKNSVA,WASTRES,KQRHRLPLS,not detected,0 of 3
KSSQSVLYESRNKNSVA,WASWRES,AQYHRLPTS,91 µM,3 of 3
KSSQSVLYESRNKNPVA,WASTRES,WQYMRLPLS,15 µM,2 of 3
KSTQSVLYESRNKNSVA,WASTRES,KQYQRLPLS,45 nM,3 of 3
KSSQSVLYESRNKNSVA,WADTREC,GQYHRLPLS,1.3 µM,2 of 3
KSSQSVLYESRNKNSVA,WASTRES,RQNHRLPLS,10 nM,3 of 3
KSSQSVLYESRNKNSVA,WASTRES,TRYHRLPLP,5.4 nM,3 of 3
KSSQSVLYESRNKNSVV,WASTRES,CQYHRLPRS,not detected,0 of 3
KSSQSVLYESRNKNSVA,WQSTRES,MQYHFLPLS,not detected,0 of 3
KSSQSCLYESRNKNSVA,WASTAES,AQYHRLPLS,11 µM,1 of 3
KSSQSVLYESRNKNSVA,WSSTRES,TQYHRAPLS,not detected,0 of 3
KSSQSFLYESRNKNSVA,WASTRES,RQRHRLPLS,12 nM,3 of 3
KSSQSVLYESRNKNSVA,WASTRES,DRYHRLPLS,47 µM,2 of 3
KKSQSVLYESRNKNAVA,WASTRES,MQYHRLPLS,59 µM,2 of 3
KSSQAVLYESRNKNSVA,WASTRES,YQYHRLPLC,14 nM,3 of 3
KSSQSVLYESRNKNSVA,WANTRES,VQGHRLPLS,8.5 µM,3 of 3
KSSQSVLYESRNKNSVA,WASTRES,EQYHRLPLS,90 nM,2 of 3
KKSQSVLCESRNKNSVA,WASTRES,EQYHRLPLS,460 nM,1 of 3
KSSQSVLYESRNKNSVA,WASTRES,TQYHFLPLS,not detected,0 of 3
KSPQSVLYESRNKNSVM,WASTRES,LQYHRLPLS,21 µM,1 of 3
KSSQSMLYESRNKNSVA,WASTRES,EQYHRLPLG,150 nM,2 of 3
KSSQSVLYESRNKNSVA,WASMREE,WQYHRLPLS,90 nM,3 of 3
KSSQSVIYESLNKNSVA,WASTRES,IQYHRLPLS,24 nM,3 of 3
KKSQSVLYESRNKNSVA,WNSTRES,KQYHRLPLS,not detected,0 of 3
KGAQSVLYESRNKNSVA,WASTRES,GQYHRLPLS,17 nM,3 of 3
KSSQSVLYESRNKNVYA,WASTRES,AQYHRLPLS,not detected,0 of 3
KSSQSVLYWSRNKNSVA,WASTRES,IQYPRLPLS,26 µM,2 of 3
KSSQSVGYESRNKNSVA,WQSTRES,SQYHRLPLS,280 nM,1 of 3
KSSQSNLYESRNKNSVA,WASSRES,RQYHRLPLS,not detected,0 of 3
KSSQSVLYESRNKNSQA,WASTRES,TQYHRLPLP,not detected,0 of 3
KRSQSVLYESRNKNSVA,WAITRES,GQYHRLPLS,3.0 µM,1 of 3
KSSQSVLYESRKKNSVA,WASTREQ,SQYHRLPLS,7.8 nM,3 of 3
KSSQSVLYESRNKNSWA,WASTRES,NQYHGLPLS,7.0 µM,2 of 3

Extract of 3 entries:

CDR-L1	CDR-L2	CDR-L3	Kd (apparent)	detected
KSSQSVLYESRNKNSVA	WQSTRES	MQYHFLPLS	not detected	0 of 3
KSSQSVLYESRNKNSVA	WASTRES	DRYHRLPLS	47 µM	2 of 3
SSSQSVLYESRNKNSVA	WASTRES	KQRHRLPLS	not detected	0 of 3